Data published in PubChem BioAssay (NCI).
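All cell lines were grown in 96-well plates and treated with compound for 48 hours. GI50 marks 50% less growth. TGI is the concentration that stops growth completely.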

Columns and labels:
Assay in all cases: NCI tumour cell line growth inhibition, 48 h
UO-31 renal = tested on: UO-31 renal
DU-145 prostate = tested on: DU-145 prostate
SN12C renal = tested on: SN12C renal
M14 melanoma = tested on: M14 melanoma
SK-OV-3 ovarian = tested on: SK-OV-3 ovarian
HL-60(TB) leukemia = tested on: HL-60(TB) leukemia
MOLT-4 leukemia = tested on: MOLT-4 leukemia
HT29 colon = tested on: HT29 colon
CAKI-1 renal = tested on: CAKI-1 renal
RXF 393 renal = tested on: RXF 393 renal
LOX IMVI melanoma = tested on: LOX IMVI melanoma
HCT-116 colon = tested on: HCT-116 colon
A498 renal = tested on: A498 renal
NCI-H322M lung = tested on: NCI-H322M lung
OVCAR-4 ovarian = tested on: OVCAR-4 ovarian
NCI-H226 lung = tested on: NCI-H226 lung
KM12 colon = tested on: KM12 colon
SF-295 CNS = tested on: SF-295 CNS
SK-MEL-28 melanoma = tested on: SK-MEL-28 melanoma
NCI/ADR-RES ovarian = tested on: NCI/ADR-RES ovarian
MDA-MB-231 breast = tested on: MDA-MB-231 breast
OVCAR-5 ovarian = tested on: OVCAR-5 ovarian
PC-3 prostate = tested on: PC-3 prostate
A549 NSCLC = tested on: A549 NSCLC
OVCAR-3 ovarian = tested on: OVCAR-3 ovarian
ACHN renal = tested on: ACHN renal
UACC-257 melanoma = tested on: UACC-257 melanoma
EKVX NSCLC = tested on: EKVX NSCLC
786-0 renal = tested on: 786-0 renal
SNB-75 CNS = tested on: SNB-75 CNS
CCRF-CEM leukemia = tested on: CCRF-CEM leukemia
IGROV1 ovarian = tested on: IGROV1 ovarian
TK-10 renal = tested on: TK-10 renal
SNB-19 CNS = tested on: SNB-19 CNS
NCI-H460 lung = tested on: NCI-H460 lung
SK-MEL-2 melanoma = tested on: SK-MEL-2 melanoma
UACC-62 melanoma = tested on: UACC-62 melanoma
U251 CNS = tested on: U251 CNS
MCF7 breast = tested on: MCF7 breast
HOP-92 NSCLC = tested on: HOP-92 NSCLC
SF-539 CNS = tested on: SF-539 CNS
MDA-MB-435 = tested on: MDA-MB-435
OVCAR-8 ovarian = tested on: OVCAR-8 ovarian
HCT-15 colon = tested on: HCT-15 colon
K-562 leukemia = tested on: K-562 leukemia
SK-MEL-5 melanoma = tested on: SK-MEL-5 melanoma
COLO 205 colon = tested on: COLO 205 colon
SW-620 colon = tested on: SW-620 colon
SR leukemia = tested on: SR leukemia

`O=[N+]([O-])c1ncn(F)c1[N+](=O)[O-]` was tested, and the GI50 (UO-31 renal) was > 100 µM, the TGI (UO-31 renal) was > 100 µM and the GI50 (DU-145 prostate) was > 100 µM. For the same compound, the TGI (DU-145 prostate) was > 100 µM, the GI50 (SN12C renal) was > 100 µM and the TGI (SN12C renal) was > 100 µM. The GI50 (M14 melanoma) was > 100 µM, the TGI (M14 melanoma) was > 100 µM and the GI50 (SK-OV-3 ovarian) was > 100 µM. For the same compound, the TGI (SK-OV-3 ovarian) was > 100 µM, the TGI (HL-60(TB) leukemia) was > 100 µM and the GI50 (MOLT-4 leukemia) was > 100 µM. For the same compound, the TGI (MOLT-4 leukemia) was > 100 µM, the GI50 (HT29 colon) was > 100 µM and the TGI (HT29 colon) was > 100 µM. The GI50 (CAKI-1 renal) was 41.2 µM, the TGI (CAKI-1 renal) was > 100 µM and the GI50 (RXF 393 renal) was > 100 µM. The TGI (RXF 393 renal) was > 100 µM, the GI50 (LOX IMVI melanoma) was 79.8 µM and the TGI (LOX IMVI melanoma) was > 100 µM. For the same compound, the GI50 (HCT-116 colon) was > 100 µM, the TGI (HCT-116 colon) was > 100 µM and the GI50 (A498 renal) was > 100 µM. The TGI (A498 renal) was > 100 µM, the GI50 (NCI-H322M lung) was > 100 µM and the TGI (NCI-H322M lung) was > 100 µM. For the same compound, the GI50 (OVCAR-4 ovarian) was 49.9 µM, the TGI (OVCAR-4 ovarian) was > 100 µM and the GI50 (NCI-H226 lung) was 93.4 µM. The TGI (NCI-H226 lung) was > 100 µM, the GI50 (KM12 colon) was > 100 µM and the TGI (KM12 colon) was > 100 µM. The GI50 (SF-295 CNS) was > 100 µM, the TGI (SF-295 CNS) was > 100 µM and the GI50 (SK-MEL-28 melanoma) was > 100 µM. For the same compound, the TGI (SK-MEL-28 melanoma) was > 100 µM, the GI50 (NCI/ADR-RES ovarian) was > 100 µM and the TGI (NCI/ADR-RES ovarian) was > 100 µM. The GI50 (MDA-MB-231 breast) was > 100 µM, the TGI (MDA-MB-231 breast) was > 100 µM and the GI50 (OVCAR-5 ovarian) was > 100 µM. For the same compound, the TGI (OVCAR-5 ovarian) was > 100 µM, the GI50 (PC-3 prostate) was > 100 µM and the TGI (PC-3 prostate) was > 100 µM. For the same compound, the GI50 (A549 NSCLC) was > 100 µM, the TGI (A549 NSCLC) was > 100 µM and the GI50 (OVCAR-3 ovarian) was > 100 µM. The TGI (OVCAR-3 ovarian) was > 100 µM, the GI50 (ACHN renal) was 94.6 µM and the TGI (ACHN renal) was > 100 µM. For the same compound, the GI50 (UACC-257 melanoma) was > 100 µM, the TGI (UACC-257 melanoma) was > 100 µM and the GI50 (EKVX NSCLC) was > 100 µM. For the same compound, the TGI (EKVX NSCLC) was > 100 µM, the GI50 (786-0 renal) was > 100 µM and the TGI (786-0 renal) was > 100 µM. The GI50 (SNB-75 CNS) was > 100 µM, the TGI (SNB-75 CNS) was > 100 µM and the GI50 (CCRF-CEM leukemia) was 60.9 µM. For the same compound, the TGI (CCRF-CEM leukemia) was > 100 µM, the GI50 (IGROV1 ovarian) was > 100 µM and the TGI (IGROV1 ovarian) was > 100 µM. The GI50 (TK-10 renal) was > 100 µM, the TGI (TK-10 renal) was > 100 µM and the GI50 (SNB-19 CNS) was > 100 µM. For the same compound, the TGI (SNB-19 CNS) was > 100 µM, the GI50 (NCI-H460 lung) was > 100 µM and the TGI (NCI-H460 lung) was > 100 µM. The GI50 (SK-MEL-2 melanoma) was > 100 µM, the TGI (SK-MEL-2 melanoma) was > 100 µM and the GI50 (UACC-62 melanoma) was > 100 µM. For the same compound, the TGI (UACC-62 melanoma) was > 100 µM, the GI50 (U251 CNS) was > 100 µM and the TGI (U251 CNS) was > 100 µM. For the same compound, the GI50 (MCF7 breast) was > 100 µM, the TGI (MCF7 breast) was > 100 µM and the GI50 (HOP-92 NSCLC) was > 100 µM. For the same compound, the TGI (HOP-92 NSCLC) was > 100 µM, the GI50 (SF-539 CNS) was > 100 µM and the TGI (SF-539 CNS) was > 100 µM. For the same compound, the GI50 (MDA-MB-435) was > 100 µM, the TGI (MDA-MB-435) was > 100 µM and the GI50 (OVCAR-8 ovarian) was > 100 µM. For the same compound, the TGI (OVCAR-8 ovarian) was > 100 µM, the GI50 (HCT-15 colon) was 41.7 µM and the TGI (HCT-15 colon) was > 100 µM. The GI50 (K-562 leukemia) was > 100 µM, the TGI (K-562 leukemia) was > 100 µM and the GI50 (SK-MEL-5 melanoma) was > 100 µM. For the same compound, the TGI (SK-MEL-5 melanoma) was > 100 µM, the GI50 (COLO 205 colon) was > 100 µM and the TGI (COLO 205 colon) was > 100 µM. The GI50 (SW-620 colon) was > 100 µM, the TGI (SW-620 colon) was > 100 µM and the GI50 (SR leukemia) was 59.6 µM. The TGI (SR leukemia) was > 100 µM.
